Data from patent US20040013631A1, “Skin care cosmetic compositions containing carboxyalkylates of branched alcohols and/or alkoxylates thereof” (Unilever Home & Personal Care USA, Division of Conopco, priority 2002, published 2004).

Tested on: human sebocytes
Assay: Inhibition of sebocyte lipogenesis (14C-acetate label remaining in sebocytes)
Assay type: cell-based

C13 isoalcohol carboxyethylate (TDCE) [Compound 1]
effectiveness in inhibition of lipogenesis relative to TDCM (comparison of the data in Table 2): almost twice as effective as TDCM | activity as sebum suppressant relative to the branched alcohol from which it is derived (ratio of IC50 values of Table 3): about 20 times
